Three compounds from patent EP1068184B1, “N-ARYLOXYETHYLAMINE DERIVATIVES FOR THE TREATMENT OF DEPRESSION” (Wyeth, priority 1998, dated 1999) can be followed below.

Chains of the proteins cited; added tags and fusions are not shown.
UniProt P31652, whole entry: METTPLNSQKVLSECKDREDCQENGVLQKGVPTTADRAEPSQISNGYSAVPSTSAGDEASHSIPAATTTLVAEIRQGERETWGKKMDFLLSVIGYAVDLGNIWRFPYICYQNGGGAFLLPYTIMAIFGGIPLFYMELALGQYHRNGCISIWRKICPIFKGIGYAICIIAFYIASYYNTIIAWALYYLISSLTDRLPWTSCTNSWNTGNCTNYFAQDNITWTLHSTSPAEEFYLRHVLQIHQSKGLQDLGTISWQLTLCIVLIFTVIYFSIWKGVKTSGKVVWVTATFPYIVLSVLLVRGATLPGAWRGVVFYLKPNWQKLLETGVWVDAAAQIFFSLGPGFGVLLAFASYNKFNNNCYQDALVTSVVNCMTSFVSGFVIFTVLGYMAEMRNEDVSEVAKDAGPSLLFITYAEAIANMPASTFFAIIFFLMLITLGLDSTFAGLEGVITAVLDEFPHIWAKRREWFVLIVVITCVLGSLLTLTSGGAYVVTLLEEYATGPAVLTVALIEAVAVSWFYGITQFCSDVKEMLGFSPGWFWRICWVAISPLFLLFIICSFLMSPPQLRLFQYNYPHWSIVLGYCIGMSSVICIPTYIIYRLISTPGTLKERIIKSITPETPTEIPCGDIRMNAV

In the experiment the target is T1, serotonin transporter (Rattus norvegicus, UniProt P31652).
T1 construct: frontal cortical membranes prepared from male Sprague-Dawley rats; from tissue; host or cells: rat frontal cortex membranes
The experiment in a line: serotonin transporter affinity, 3H-paroxetine binding to frontal cortical membranes. Also on record: species or system male Sprague-Dawley rats. Conditions: read-out: ST (Ki). As for the experimental part: Briefly, frontal cortical membranes prepared from male Sprague-Dawley rats were incubated with ^3H-paroxetine (0.1 nM) for 60 min at 25°C. All tubes also contained either vehicle, test compound (one to eight concentrations), or a saturating concentration of fluoxetine (10 µM) to define specific binding. All reactions are terminated by the addition of ice cold Tris buffer followed by rapid filtration using a Tom Tech filtration device to separate bound from free ^3H-paroxetine.

Setting [1] is: 3H-paroxetine 0.1 nM, rat frontal cortical membranes.

By Ki is commonly meant a measure of affinity in units of concentration, obtained from inhibition or displacement.

The structures appear in SMILES notation. Like-named read-outs stand apart in the source and are kept apart here.

Consider `COc1ccccc1OCCN[C@H]1CC[C@@H](c2c[nH]c3ccc(F)cc32)CC1` [Example 1a, [(cis)-4-(5-Fluoro-1H-indol-3-yl)-cyclohexyl]-[2-(2-methoxy-phenoxy)-ethyl]-amine], for which the Ki under setting [1] was 6.76 nM.

Turning to `COc1ccccc1OCCN[C@H]1CC[C@H](c2c[nH]c3ccc(F)cc32)CC1` [Example 1b, [(trans)-4-(5-Fluoro-1H-indol-3-yl)-cyclohexyl]-[2-(2-methoxy-phenoxy)-ethyl]-amine], the Ki under setting [1] was 6.48 nM.

Regarding `OC1(CNCCOc2cccc3[nH]ccc23)CCC(c2c[nH]c3ccc(F)cc23)CC1` (stereo not drawn) [Example 13, (1,4)-4-(5-Fluoro-1H-indol-3-yl)-1-([2-(1H-indol-4-yloxy)-ethylamino]-methyl}-cyclohexanol], the Ki came out at 21 nM.
